How the values were obtained:
[1] = test system: IL-2 receptor p55 on PBMC; assay: FACS analysis of p55 expression on cultured PBMC; assay type: cell-based, human; conditions: cultures stimulated for 72 hours
Procedure: Cultured PBMC were washed with PBS, 1% bovine serum albumin (BSA), and 0.1% sodium azide. To approximately one million cells, FITC-labelled monoclonal antibody against IL-2 receptor p55 or a non-specific control mouse IgG (Becton-Dickinson) was added. Following incubation for 30 minutes, the cells were washed twice using a Sorvall cell washer 2L, then fixed in PBS and 1% paraformaldehyde. The cells were then analyzed on Becton-Dickinson FACScan and results were presented as per cent of gated cells positive for p55 after subtraction of non-specific background fluorescence.

[2] = test system: Daudi targets; assay: LAK generation, 4 hour 51Cr release cytotoxicity assay; assay type: cell-based, human; conditions: 100:1 effector:target ratio; 0.5 nM native IL-2 or 1 nM mutants
Procedure: The abilities of optimal concentrations of IL-2 and the analogues to stimulate peripheral blood mononuclear cells to generate lymphokine activated killing (LAK) in vitro were next compared.
Fresh peripheral blood mononuclear cells (PBMC) obtained from leukopharesis of normal human donors were isolated over a Ficoll-Hypaque gradient. […] Non-adherent cells were tested for cytotoxicity against Daudi targets by a 4 hour ^51 Cr release assay, with specific lysis being presented as the mean of triplicate values. Cell-free supernatants from 3 day PBMC cultures were analyzed by ELISA for cytokine content.

[3] = test system: renal cell carcinoma / cancer patients; conditions: cited from earlier work

## native IL-2: native recombinant human interleukin 2, comparator cytokine
[1]
  percentage of cells expressing p55 doubled: nor
[2]
  % maximal specific lysis: 62%
[3]; humans
  tolerated fraction of the optimal dose derived from animal studies: ≤ 10%
[3]; optimal tolerable dosage
  renal cancer patients exhibiting signs of tumor regression: around 20%
